Experiments:
[1] = Ionization constant, pKa of the compound in water in presence of 20 to 27.4% acetonitrile cosolvent by potentiometric titration method; format: physicochemical; details: water with 20 to 27.4% acetonitrile cosolvent
[2] = Ionization constant, pKa of the compound in water in presence of 30 to 35% acetonitrile cosolvent by potentiometric titration method; format: physicochemical; details: water with 30 to 35% acetonitrile cosolvent

NS(=O)(=O)c1cc2c(cc1Cl)NCNS2(=O)=O [HYDROCHLOROTHIAZIDE] showed a pKa [1] of 9.39 and a pKa [2] of 9.82.
